In PubChem BioAssay AID1497 (Sanford-Burnham Center for Chemical Genomics, 2009) one finds inhibition data, which are given here for 30 molecules.

Protein sequences, listed by entry. Tags and fused reporters are not part of them.
UniProt P05107, whole entry, looked up: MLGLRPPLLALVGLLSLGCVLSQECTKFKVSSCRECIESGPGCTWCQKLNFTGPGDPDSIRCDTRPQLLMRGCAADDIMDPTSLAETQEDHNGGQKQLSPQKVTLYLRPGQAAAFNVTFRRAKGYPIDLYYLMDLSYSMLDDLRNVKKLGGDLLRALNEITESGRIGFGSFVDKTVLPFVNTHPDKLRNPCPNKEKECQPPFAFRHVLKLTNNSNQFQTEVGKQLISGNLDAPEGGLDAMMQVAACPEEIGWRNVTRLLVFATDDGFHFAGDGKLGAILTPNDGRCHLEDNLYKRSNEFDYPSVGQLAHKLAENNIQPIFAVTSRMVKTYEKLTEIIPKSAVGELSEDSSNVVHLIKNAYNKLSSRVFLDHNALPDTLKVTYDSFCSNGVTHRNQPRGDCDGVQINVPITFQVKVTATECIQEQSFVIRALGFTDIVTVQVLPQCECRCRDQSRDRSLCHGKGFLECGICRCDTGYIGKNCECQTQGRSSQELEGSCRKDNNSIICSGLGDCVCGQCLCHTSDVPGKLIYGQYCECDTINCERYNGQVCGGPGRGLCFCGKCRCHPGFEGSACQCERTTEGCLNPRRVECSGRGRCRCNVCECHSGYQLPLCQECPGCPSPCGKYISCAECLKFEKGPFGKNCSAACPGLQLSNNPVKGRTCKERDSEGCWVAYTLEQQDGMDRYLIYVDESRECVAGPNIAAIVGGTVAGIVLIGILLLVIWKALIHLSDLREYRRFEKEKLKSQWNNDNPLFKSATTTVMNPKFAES

The entries are a selection whose mix differs from that of the whole data set. Activity calls are given as the source filed them.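 The calls were made as follows: active = primary inhibition of 50% or more at 10 µM, then 40% or more on retest; inactive = the rest.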

As a reminder, the inhibition is the relative decrease from the control value, in per cent.

This assay has as its target Integrin beta-2 (Homo sapiens) + Integrin alpha-M (Homo sapiens) (UniProt P05107+P11215). Put plainly: inhibitors of CD11b/CD18 adhesion to fibrinogen, primary screen, K562 cells, luminescence (AID 1497). The conditions noted are these: ATPlite luminescence, at 10 µM, active compounds read high, Mn2+ added to activate the integrin.
For `Cc1nc2ccc3ccccc3c2s1.O=[N+]([O-])c1cc([N+](=O)[O-])c(O)c([N+](=O)[O-])c1`, the inhibition was inactive: 0.9%.

As to `Cc1cc(C)cc(OP(C)(=O)Nc2ccccn2)c1` (stereo not given), the inhibition is inactive: -0.6%.

`Cc1ccc(C)c(NP(C)(=O)Oc2ccccc2)c1` (stereo not given): the inhibition was inactive: 5.7%.

In the case of `Cc1cc(C)cc(OP(C)(=O)Nc2ccc(C)cc2C)c1` (stereo not given), the inhibition is inactive: -55.3%.

Take `COc1ccccc1OP(C)(=O)Nc1ccc(C)cc1` (stereo not given): the inhibition was inactive: 2%.

Take `Cc1ccc(NP(C)(=O)Oc2ccccc2)c(C)c1` (stereo not given): the inhibition is inactive: 11.6%.

Regarding `COc1ccc(OP(C)(=O)Nc2cccc(F)c2)cc1` (stereo not given), the inhibition is inactive: 9.3%.

Regarding `CCOP(C)(=S)SCC(=O)NC(C)C(=O)O` (stereo not given), the inhibition is inactive: 2.1%.

On to `CCOC(=O)c1ccc(NP(C)(=O)Oc2ccc(OC)cc2)cc1` (stereo not given), for which the inhibition was inactive: 1.5%.

Regarding `CP(=O)(Nc1ccccn1)Oc1ccc(Cl)cc1` (stereo not given), the inhibition is inactive: -3.4%.

Take `Cc1cccc(C)c1OP(C)(=O)Nc1ccc(SC(F)(F)F)cc1` (stereo not given): the inhibition was inactive: 82.2%.

In the case of `CP(=O)(NC(=O)Nc1ccccc1)Oc1ccccc1` (stereo not given), the inhibition is inactive: -13%.

For `Cc1cc(C)cc(OP(C)(=O)Nc2ccc(SC(F)(F)F)cc2)c1` (stereo not given), the inhibition is inactive: 4%.

`CP(=S)(Nn1cnnc1)Oc1ccccc1` (stereo not given): the inhibition was inactive: -20.1%.

For the molecule `CP(=O)(OC12CC3CC(CC(C3)C1)C2)OC12CC3CC(CC(C3)C1)C2`, the inhibition was inactive: -1.9%.

Consider `CC(C)(C)c1ccc(OP(C)(=O)O)cc1`, for which the inhibition is inactive: -8.9%.

For `CCN(CC)CC(O)COC(=O)C(O)(c1ccccc1)C1CCCCC1` (stereo not given), the inhibition is inactive: 3.4%.

In the case of `CP(=O)(Oc1ccccc1)N1CCOC1=O` (stereo not given), the inhibition is inactive: -1.3%.

Regarding `COc1ccccc1OP(C)(=O)Nc1c(C)n(C)n(-c2ccccc2)c1=O` (stereo not given), the inhibition was inactive: -12.8%.

`CP(=O)(Nc1ccccn1)Oc1ccccc1` (stereo not given): the inhibition was inactive: -10.8%.

Regarding `CN(C)CCOC(=O)C(O)(c1ccccc1)C1CCCC1` (stereo not given), the inhibition was inactive: 1%.

For `COc1ccc(OP(C)(=O)Nc2ccccn2)cc1` (stereo not given), the inhibition was inactive: -12.1%.

Regarding `Cc1nc2ccc3ccccc3c2o1.O=[N+]([O-])c1cc([N+](=O)[O-])c(O)c([N+](=O)[O-])c1`, the inhibition was inactive: 15.2%.

For `COc1ccc(OP(C)(=O)Nc2ccccc2Br)cc1` (stereo not given), the inhibition is inactive: 2.9%.

Regarding `COc1ccccc1OP(C)(=O)Nc1ccc(C)c(C)c1` (stereo not given), the inhibition was inactive: 1.5%.

Turning to `CP(=O)(Nc1ccccc1F)Oc1ccccc1` (stereo not given), the inhibition was inactive: -0.3%.

In the case of `Cc1ccccc1NP(C)(=O)Nc1ccccc1C`, the inhibition is inactive: -4.4%.

For the molecule `CCOP(C)(=S)SCC(=O)NC(C)(CC)C(=O)O` (stereo not given), the inhibition is inactive: -4.6%.

Take `COc1ccc(OP(C)(=O)Nc2cccc(Br)c2)cc1` (stereo not given): the inhibition was inactive: 6.7%.

Turning to `CN(C)CCOC(=O)C(O)(c1ccccc1)C1CCCCC1` (stereo not given), the inhibition was inactive: -6.6%.
